Laboratory results reported in ChEMBL document CHEMBL5113391, “Halogen substituents enhance oxime nucleophilicity for reactivation of cholinesterases inhibited by nerve agents” (2022).

The chains behind the UniProt entries cited, without tags or fusion partners. Where a name states a change or a piece, a line headed by the entry shows the natural chain unless it says otherwise.
UniProt P06276, whole entry, looked up: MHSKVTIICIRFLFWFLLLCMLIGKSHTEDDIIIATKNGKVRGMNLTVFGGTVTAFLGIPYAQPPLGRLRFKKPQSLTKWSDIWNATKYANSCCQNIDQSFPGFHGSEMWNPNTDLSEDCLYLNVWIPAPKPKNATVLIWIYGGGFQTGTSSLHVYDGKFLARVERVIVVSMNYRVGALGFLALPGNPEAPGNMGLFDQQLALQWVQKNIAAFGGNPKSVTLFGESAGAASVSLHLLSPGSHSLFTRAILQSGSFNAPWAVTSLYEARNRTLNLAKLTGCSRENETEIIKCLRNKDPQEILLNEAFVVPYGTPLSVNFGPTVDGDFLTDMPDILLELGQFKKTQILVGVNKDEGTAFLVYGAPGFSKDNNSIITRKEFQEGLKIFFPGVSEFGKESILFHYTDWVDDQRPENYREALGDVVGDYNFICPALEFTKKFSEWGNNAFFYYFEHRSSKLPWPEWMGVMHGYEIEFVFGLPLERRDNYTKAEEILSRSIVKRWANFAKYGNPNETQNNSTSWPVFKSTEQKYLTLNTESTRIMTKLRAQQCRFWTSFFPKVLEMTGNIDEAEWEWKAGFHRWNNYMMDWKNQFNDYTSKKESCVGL
UniProt P22303: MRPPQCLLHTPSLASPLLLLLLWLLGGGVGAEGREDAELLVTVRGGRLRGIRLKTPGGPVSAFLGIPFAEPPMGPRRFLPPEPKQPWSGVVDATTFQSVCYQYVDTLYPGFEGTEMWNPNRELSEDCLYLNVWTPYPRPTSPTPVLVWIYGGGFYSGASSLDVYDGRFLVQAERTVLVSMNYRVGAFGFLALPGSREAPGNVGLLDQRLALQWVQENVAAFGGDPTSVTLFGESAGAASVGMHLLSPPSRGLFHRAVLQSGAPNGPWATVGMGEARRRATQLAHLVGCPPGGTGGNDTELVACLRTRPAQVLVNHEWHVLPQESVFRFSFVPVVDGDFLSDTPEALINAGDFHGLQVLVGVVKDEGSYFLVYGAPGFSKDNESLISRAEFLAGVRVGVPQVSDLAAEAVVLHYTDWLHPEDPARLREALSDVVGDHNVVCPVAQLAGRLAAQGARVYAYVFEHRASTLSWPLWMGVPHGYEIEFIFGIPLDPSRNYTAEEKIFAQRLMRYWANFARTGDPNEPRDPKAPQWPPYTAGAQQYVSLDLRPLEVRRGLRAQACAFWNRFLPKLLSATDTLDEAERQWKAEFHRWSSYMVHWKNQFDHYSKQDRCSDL

Legend:
[1] = biological target: Cholinesterase (Homo sapiens) (UniProt P06276); assay: Reactivation of tabun induced inhibition of BChE in human plasma assessed as first-order reactivation rate constant using ATCh as substrate incubated for 30 mins by Ellman's method; details: filed as activator
[2] = biological target: Cholinesterase (Homo sapiens) (UniProt P06276); assay: Reactivation of VX induced inhibition of BChE in human plasma assessed as second-order rate constant using ATCh as substrate incubated for 30 mins by Ellman's method; details: filed as activator
[3] = biological target: Cholinesterase (Homo sapiens) (UniProt P06276); assay: Reactivation of cyclosarin induced inhibition of BChE in human plasma assessed as first-order reactivation rate constant using ATCh as substrate incubated for 30 mins by Ellman's method; details: filed as activator
[4] = biological target: Cholinesterase (Homo sapiens) (UniProt P06276); assay: Reactivation of tabun induced inhibition of BChE in human plasma assessed as dissociation constant using ATCh as substrate incubated for 30 mins by Ellman's method; details: filed as activator
[5] = biological target: Cholinesterase (Homo sapiens) (UniProt P06276); assay: Reactivation of cyclosarin induced inhibition of BChE in human plasma assessed as dissociation constant using ATCh as substrate incubated for 30 mins by Ellman's method; details: filed as activator
[6] = biological target: Cholinesterase (Homo sapiens) (UniProt P06276); assay: Reactivation of sarin induced inhibition of BChE in human plasma assessed as second-order rate constant using ATCh as substrate incubated for 30 mins by Ellman's method; details: filed as activator
[7] = biological target: Cholinesterase (Homo sapiens) (UniProt P06276); assay: Reactivation of tabun induced inhibition of BChE in human plasma assessed as second-order rate constant using ATCh as substrate incubated for 30 mins by Ellman's method; details: filed as activator
[8] = biological target: Cholinesterase (Homo sapiens) (UniProt P06276); assay: Reactivation of cyclosarin induced inhibition of BChE in human plasma assessed as second-order rate constant using ATCh as substrate incubated for 30 mins by Ellman's method; details: filed as activator
[9] = biological target: Cholinesterase (Homo sapiens) (UniProt P06276); assay: Reactivation of sarin induced inhibition of BChE in human plasma assessed as dissociation constant using ATCh as substrate incubated for 30 mins by Ellman's method
[10] = biological target: Acetylcholinesterase (Homo sapiens) (UniProt P22303); assay: Reactivation of tabun induced inhibition of recombinant human AChE assessed as second-order reactivation rate constant using ATCh as substrate incubated for 30 mins by Ellman's method; details: filed as activator
[11] = biological target: Acetylcholinesterase (Homo sapiens) (UniProt P22303); assay: Reactivation of tabun induced inhibition of recombinant human AChE assessed as maximal first-order reactivation rate constant using ATCh as substrate incubated for 30 mins by Ellman's method; details: filed as activator
[12] = biological target: Acetylcholinesterase (Homo sapiens) (UniProt P22303); assay: Reactivation of cyclosarin induced inhibition of recombinant human AChE assessed as maximal first-order reactivation rate constant using ATCh as substrate incubated for 30 mins by Ellman's method; details: filed as activator
[13] = biological target: Acetylcholinesterase (Homo sapiens) (UniProt P22303); assay: Reactivation of tabun induced inhibition of recombinant human AChE assessed as dissociation constant using ATCh as substrate incubated for 30 mins by Ellman's method; details: filed as activator
[14] = biological target: Acetylcholinesterase (Homo sapiens) (UniProt P22303); assay: Reactivation of cyclosarin induced inhibition of recombinant human AChE assessed as dissociation constant using ATCh as substrate incubated for 30 mins by Ellman's method; details: filed as activator
[15] = biological target: Acetylcholinesterase (Homo sapiens) (UniProt P22303); assay: Reactivation of VX induced inhibition of recombinant human AChE assessed as second-order reactivation rate constant using ATCh as substrate incubated for 30 mins by Ellman's method; details: filed as activator
[16] = biological target: Acetylcholinesterase (Homo sapiens) (UniProt P22303); assay: Reactivation of VX induced inhibition of recombinant human AChE assessed as dissociation constant using ATCh as substrate incubated for 30 mins by Ellman's method; details: filed as activator
[17] = biological target: Acetylcholinesterase (Homo sapiens) (UniProt P22303); assay: Reactivation of sarin induced inhibition of recombinant human AChE assessed as second-order reactivation rate constant using ATCh as substrate incubated for 30 mins by Ellman's method; details: filed as activator
[18] = biological target: Acetylcholinesterase (Homo sapiens) (UniProt P22303); assay: Reactivation of VX induced inhibition of recombinant human AChE assessed as maximal first-order reactivation rate constant using ATCh as substrate incubated for 30 mins by Ellman's method; details: filed as activator
[19] = biological target: Acetylcholinesterase (Homo sapiens) (UniProt P22303); assay: Reactivation of sarin induced inhibition of recombinant human AChE assessed as dissociation constant using ATCh as substrate incubated for 30 mins by Ellman's method
[20] = biological target: Acetylcholinesterase (Homo sapiens) (UniProt P22303); assay: Reactivation of cyclosarin induced inhibition of recombinant human AChE assessed as second-order reactivation rate constant using ATCh as substrate incubated for 30 mins by Ellman's method; details: filed as activator
[21] = biological target: Cholinesterase (Homo sapiens) (UniProt P06276); assay: Reactivation of VX induced inhibition of BChE in human plasma assessed as dissociation constant using ATCh as substrate incubated for 30 mins by Ellman's method; details: filed as activator
[22] = biological target: Cholinesterase (Homo sapiens) (UniProt P06276); assay: Reactivation of VX induced inhibition of BChE in human plasma assessed as first-order reactivation rate constant using ATCh as substrate incubated for 30 mins by Ellman's method; details: filed as activator
[23] = biological target: Cholinesterase (Homo sapiens) (UniProt P06276); assay: Reactivation of sarin induced inhibition of BChE in human plasma assessed as first-order reactivation rate constant using ATCh as substrate incubated for 30 mins by Ellman's method; details: filed as activator
[24] = Antioxidant activity assessed as FRAP radical activity at 1 mM by FRAP assay
[25] = biological target: Acetylcholinesterase (Homo sapiens) (UniProt P22303); assay: Reactivation of tabun induced inhibition of AChE in human erythrocytes assessed as dissociation constant using ATCh as substrate by Ellman's method; details: Erythrocyte, filed as activator
[26] = Antioxidant activity assessed as FRAP radical activity at 50 uM by FRAP assay

| Compound | K [1] [min⁻¹] | K [2] | K [3] [min⁻¹] | Kdiss [4] [µM] | Kdiss [5] [µM] | K [6] [µM] | K [7] [M⁻¹ min⁻¹] | K [8] [µM] | other results |
| --- | --- | --- | --- | --- | --- | --- | --- | --- | --- |
| NC(=O)c1cc[n+](CCC[n+]2ccc(/C=N/O)cc2)cc1 | 0.0035 | 330 µM | 0.039 | 1600 | 652 | 116 | 2.2 | 60 | Kdiss [9]: > 100 µM |
| NC(=O)c1cc[n+](CCC[n+]2ccc(/C=N/O)c(F)c2)cc1 |  | 86 µM | 0.026 |  | 598 | 24.4 |  | 44 | K [10]: 186 M⁻¹ min⁻¹; K [11]: 0.0055 min⁻¹; K [12]: 0.41 min⁻¹; Kdiss [13]: 29 µM; Kdiss [14]: 238 µM; K [15]: 388 M⁻¹ min⁻¹; Kdiss [16]: 734 µM; K [17]: 328 M⁻¹ min⁻¹; K [18]: 0.29 min⁻¹; Kdiss [19]: > 500 µM; Kdiss [9]: > 100 µM; K [20]: 1700 M⁻¹ min⁻¹ |
| C[n+]1ccccc1C=NO | 0.0011 | 35 µM | 0.08 | 1270 | 1200 | 75 | 0.9 | 65 | Kdiss [21]: 2680 µM; K [22]: 0.09 min⁻¹; K [23]: 0.18 min⁻¹; Kdiss ([9]; filed as activator): 2400 µM |
| Cc1cc(C(C)(C)C)c(O)c(C(C)(C)C)c1 |  |  |  |  |  |  |  |  | Activity [24]: 2.7 mM |
| O/N=C/c1cc[n+](CCC[n+]2ccc(/C=N/O)cc2)cc1 | 0.0036 |  |  | 250 |  |  | 14 |  | K [10]: 723 M⁻¹ min⁻¹; K [11]: 0.094 min⁻¹; Kdiss [13]: 135 µM |
| NC(=O)c1cc[n+](C/C=C/C[n+]2cc(F)c(/C=N/O)c(F)c2)cc1 |  |  |  |  |  |  |  |  | Activity [24]: 1.6 mM |
| NC(=O)c1cc[n+](C/C=C/C[n+]2ccc(/C=N/O)c(F)c2)cc1 |  |  |  |  |  |  |  |  | K [10]: 337 M⁻¹ min⁻¹; K [11]: 0.026 min⁻¹; Kdiss [13]: 76 µM |
| NC(=O)c1cc[n+](CCC[n+]2cc(Cl)c(/C=N/O)c(Cl)c2)cc1 | 0.028 | 150 M⁻¹ min⁻¹ | 0.08 | 480 | 320 | 360 | 60 | 240 | Kdiss [21]: 490 µM; K [22]: 0.07 min⁻¹; Kdiss [9]: > 100 µM |
| NC(=O)c1cc[n+](C/C=C/C[n+]2ccc(/C=N/O)cc2)cc1 |  |  |  |  |  |  |  |  | Kdiss [25]: 70 µM |
| Cc1c(C)c2c(c(C)c1O)CCC(C)(C(=O)O)O2 (configuration not stated) |  |  |  |  |  |  |  |  | Activity [26]: 2.03 mM |
| NC(=O)c1cc[n+](COC[n+]2ccccc2/C=N/O)cc1 | 0.0016 | 115 M⁻¹ min⁻¹ |  | 1800 |  | 150 | 0.9 | 780 | Kdiss [21]: 370 µM; K [22]: 0.12 min⁻¹; K [23]: 0.04 min⁻¹; Kdiss ([9]; filed as activator): 270 µM |
